The test system of test [1] is MIA Rat (monosodium iodoacetate-induced osteoarthritis, right knee joint). Kind of test: Monosodium iodoacetate-induced osteoarthritis in rat model of joint cartilage damage (MIA Rat). The following applies: 2-week MIA study, Day 14, rat; for % I @ 10 mg/kg/day (%) (± SEM): inhibition of loss of hind limb joint function in MIA at Day 14: 10 mg/kg/day via osmotic pump, tested form: HCl. An excerpt:
One end result of the induction of osteoarthritis in this model, as determined by histologic analysis, is the development of an osteoarthritic condition within the affected joint, as characterized by the loss of Toluidine blue staining and formation of osteophytes. Associated with the histologic changes is a concentration-dependent degradation of joint cartilage, as evidenced by affects on hind-paw weight distribution of the limb containing the affected joint, the presence of increased amounts of proteoglycan or hydroxyproline in the joint upon biochemical analysis, or histopathological analysis of the osteoarthritic lesions.
The invention compounds typically are not effective for relieving joint pain when administered in an acute model, such as the instant MIA Rat model, which has a duration of just 14 or 28 days.
Generally, In the MIA Rat model on Day 0, the hind-paw weight differential between the right arthritic joint and the left healthy joint of male Wistar rats (150 g) are determined with an incapacitance tester, model 2KG (Linton Instrumentation, Norfolk, United Kingdom). […]
Administration of an invention compound in this model is optionally by oral administration or by intravenous administration via an osmotic pump. After 7 and 14 days for a two week study, or 7, 14, and 28 days for a four week study, the hind-paw weight distribution is again determined. […] Percent inhibition of a change in hind paw joint function is calculated as the percent change in hind-paw weight distribution for treated animals versus control animals. For example, for a two week study, [formula] wherein: ΔWC is the hind-paw weight differential between the healthy left limb and the arthritic limb of the control animal administered vehicle alone, as measured on Day 14; and • ΔWG is the hind-paw weight differential between the healthy left limb and the arthritic limb of the animal administered an invention compound as measured on Day 14. […]

By UniProt entry, the sequences of proteins in these tests, tags left out. Residues count along the entry.
UniProt A0A287BIN3, 1-1109: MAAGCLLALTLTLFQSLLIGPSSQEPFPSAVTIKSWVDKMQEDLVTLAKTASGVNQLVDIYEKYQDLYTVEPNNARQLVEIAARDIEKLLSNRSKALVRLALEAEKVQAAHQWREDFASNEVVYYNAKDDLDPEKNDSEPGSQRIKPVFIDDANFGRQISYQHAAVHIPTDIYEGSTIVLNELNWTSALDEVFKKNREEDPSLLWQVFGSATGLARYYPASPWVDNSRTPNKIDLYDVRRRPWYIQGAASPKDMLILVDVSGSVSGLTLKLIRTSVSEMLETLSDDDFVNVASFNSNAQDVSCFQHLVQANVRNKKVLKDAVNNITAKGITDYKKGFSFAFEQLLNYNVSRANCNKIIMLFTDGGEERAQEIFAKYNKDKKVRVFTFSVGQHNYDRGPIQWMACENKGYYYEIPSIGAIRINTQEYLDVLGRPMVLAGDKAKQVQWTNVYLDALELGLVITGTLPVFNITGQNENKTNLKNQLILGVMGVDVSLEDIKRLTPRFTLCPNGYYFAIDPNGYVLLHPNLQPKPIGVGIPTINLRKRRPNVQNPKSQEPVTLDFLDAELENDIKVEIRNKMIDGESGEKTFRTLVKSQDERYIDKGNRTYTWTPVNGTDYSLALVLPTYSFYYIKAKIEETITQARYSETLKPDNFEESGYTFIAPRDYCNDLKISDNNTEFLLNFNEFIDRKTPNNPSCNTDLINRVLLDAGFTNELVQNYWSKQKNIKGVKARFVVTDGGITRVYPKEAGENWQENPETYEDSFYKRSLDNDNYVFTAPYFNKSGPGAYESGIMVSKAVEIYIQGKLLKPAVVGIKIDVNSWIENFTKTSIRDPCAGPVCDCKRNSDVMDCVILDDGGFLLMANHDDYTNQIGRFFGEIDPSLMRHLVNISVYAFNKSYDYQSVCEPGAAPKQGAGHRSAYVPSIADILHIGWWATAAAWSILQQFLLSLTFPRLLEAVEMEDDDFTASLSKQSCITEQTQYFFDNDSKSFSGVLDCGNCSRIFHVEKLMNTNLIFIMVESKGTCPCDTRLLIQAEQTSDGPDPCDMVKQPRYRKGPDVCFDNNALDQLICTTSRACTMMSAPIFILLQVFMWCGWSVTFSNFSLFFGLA
UniProt A0A8W4FF87, 1-1142: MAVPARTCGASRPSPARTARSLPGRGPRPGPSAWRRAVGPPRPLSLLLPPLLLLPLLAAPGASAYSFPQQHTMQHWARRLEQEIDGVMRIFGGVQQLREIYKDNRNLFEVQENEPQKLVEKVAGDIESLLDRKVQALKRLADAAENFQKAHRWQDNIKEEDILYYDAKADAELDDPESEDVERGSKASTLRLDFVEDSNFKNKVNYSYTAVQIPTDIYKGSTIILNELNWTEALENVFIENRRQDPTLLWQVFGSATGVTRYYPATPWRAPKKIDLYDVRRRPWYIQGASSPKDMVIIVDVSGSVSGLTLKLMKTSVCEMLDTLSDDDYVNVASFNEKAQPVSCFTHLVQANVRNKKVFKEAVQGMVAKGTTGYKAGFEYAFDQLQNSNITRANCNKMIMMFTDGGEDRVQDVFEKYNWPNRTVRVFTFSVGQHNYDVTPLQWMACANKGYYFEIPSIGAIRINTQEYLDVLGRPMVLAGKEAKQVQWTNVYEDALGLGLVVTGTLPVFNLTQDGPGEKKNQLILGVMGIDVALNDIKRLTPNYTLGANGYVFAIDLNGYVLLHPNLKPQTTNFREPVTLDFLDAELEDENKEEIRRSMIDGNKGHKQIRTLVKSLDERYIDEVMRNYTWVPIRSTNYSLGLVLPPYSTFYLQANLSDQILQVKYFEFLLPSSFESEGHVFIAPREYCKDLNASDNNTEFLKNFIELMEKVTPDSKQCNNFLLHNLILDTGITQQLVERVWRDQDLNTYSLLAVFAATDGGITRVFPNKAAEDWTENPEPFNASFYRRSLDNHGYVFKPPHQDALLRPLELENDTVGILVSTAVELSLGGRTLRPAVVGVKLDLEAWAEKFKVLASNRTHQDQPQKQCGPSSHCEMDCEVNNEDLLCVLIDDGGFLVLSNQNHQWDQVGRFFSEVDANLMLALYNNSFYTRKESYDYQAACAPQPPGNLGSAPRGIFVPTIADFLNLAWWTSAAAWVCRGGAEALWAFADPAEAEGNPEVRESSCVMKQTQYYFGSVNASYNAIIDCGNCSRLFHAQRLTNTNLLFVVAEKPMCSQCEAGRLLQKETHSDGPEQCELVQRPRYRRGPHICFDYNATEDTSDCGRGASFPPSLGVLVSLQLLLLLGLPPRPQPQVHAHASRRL
UniProt P54289, 25-1103 limits assumed: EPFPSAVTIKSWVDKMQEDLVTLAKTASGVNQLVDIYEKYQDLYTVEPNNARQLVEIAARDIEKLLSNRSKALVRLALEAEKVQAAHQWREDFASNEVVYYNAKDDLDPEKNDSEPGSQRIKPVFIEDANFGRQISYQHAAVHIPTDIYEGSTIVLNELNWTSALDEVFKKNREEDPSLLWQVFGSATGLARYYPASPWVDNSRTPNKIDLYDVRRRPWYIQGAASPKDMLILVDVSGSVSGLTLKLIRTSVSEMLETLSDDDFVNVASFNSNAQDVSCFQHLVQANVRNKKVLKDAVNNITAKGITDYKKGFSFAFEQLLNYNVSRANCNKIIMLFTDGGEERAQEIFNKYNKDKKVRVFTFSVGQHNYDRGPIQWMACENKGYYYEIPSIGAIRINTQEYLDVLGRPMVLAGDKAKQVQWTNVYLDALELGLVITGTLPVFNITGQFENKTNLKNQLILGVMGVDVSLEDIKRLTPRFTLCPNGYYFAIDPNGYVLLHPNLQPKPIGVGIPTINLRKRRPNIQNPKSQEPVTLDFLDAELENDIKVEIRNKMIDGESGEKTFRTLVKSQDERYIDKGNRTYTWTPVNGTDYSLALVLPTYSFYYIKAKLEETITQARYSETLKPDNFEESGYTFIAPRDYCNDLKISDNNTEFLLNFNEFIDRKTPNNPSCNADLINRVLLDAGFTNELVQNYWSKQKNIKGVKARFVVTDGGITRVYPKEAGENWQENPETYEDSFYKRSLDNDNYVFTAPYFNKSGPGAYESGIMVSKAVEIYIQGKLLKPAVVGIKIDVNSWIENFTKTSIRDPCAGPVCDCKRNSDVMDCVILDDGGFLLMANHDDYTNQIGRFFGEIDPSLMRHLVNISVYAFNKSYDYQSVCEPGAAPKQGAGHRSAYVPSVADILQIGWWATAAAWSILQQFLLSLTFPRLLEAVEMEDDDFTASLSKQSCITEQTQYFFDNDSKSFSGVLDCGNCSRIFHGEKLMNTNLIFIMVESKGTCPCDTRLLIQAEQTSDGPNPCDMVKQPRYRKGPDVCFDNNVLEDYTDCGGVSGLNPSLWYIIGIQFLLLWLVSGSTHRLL
UniProt Q9NY47, 19-1150 limits assumed: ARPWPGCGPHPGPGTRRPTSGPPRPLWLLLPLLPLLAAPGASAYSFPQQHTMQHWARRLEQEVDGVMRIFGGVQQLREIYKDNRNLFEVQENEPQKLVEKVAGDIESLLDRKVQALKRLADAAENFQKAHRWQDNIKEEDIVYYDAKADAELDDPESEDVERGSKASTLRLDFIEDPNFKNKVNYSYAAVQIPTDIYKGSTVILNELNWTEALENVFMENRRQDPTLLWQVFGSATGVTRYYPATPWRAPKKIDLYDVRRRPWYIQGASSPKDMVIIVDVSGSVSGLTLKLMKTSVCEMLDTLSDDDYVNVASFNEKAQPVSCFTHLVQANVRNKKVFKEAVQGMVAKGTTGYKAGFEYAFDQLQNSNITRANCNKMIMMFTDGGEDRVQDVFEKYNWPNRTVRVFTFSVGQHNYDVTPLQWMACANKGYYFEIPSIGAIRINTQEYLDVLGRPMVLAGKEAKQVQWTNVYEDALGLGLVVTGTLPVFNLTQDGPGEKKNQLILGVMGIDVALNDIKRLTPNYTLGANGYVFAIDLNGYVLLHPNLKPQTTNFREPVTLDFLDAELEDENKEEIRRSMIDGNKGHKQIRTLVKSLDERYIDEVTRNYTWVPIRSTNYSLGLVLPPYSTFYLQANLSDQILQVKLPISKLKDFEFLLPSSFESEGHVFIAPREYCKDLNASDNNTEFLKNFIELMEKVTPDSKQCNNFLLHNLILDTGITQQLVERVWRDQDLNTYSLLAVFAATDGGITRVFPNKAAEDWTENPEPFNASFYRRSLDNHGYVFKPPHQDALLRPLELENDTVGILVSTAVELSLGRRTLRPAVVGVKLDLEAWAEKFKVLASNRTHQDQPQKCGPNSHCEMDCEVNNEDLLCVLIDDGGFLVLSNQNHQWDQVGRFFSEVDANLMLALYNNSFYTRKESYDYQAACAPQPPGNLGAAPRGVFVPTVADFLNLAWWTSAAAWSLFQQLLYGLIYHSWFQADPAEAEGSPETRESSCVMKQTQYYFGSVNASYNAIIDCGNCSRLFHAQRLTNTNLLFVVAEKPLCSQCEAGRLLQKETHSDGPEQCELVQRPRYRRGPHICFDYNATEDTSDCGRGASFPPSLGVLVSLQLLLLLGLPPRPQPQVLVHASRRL
UniProt O77773, entry or part of it limits assumed: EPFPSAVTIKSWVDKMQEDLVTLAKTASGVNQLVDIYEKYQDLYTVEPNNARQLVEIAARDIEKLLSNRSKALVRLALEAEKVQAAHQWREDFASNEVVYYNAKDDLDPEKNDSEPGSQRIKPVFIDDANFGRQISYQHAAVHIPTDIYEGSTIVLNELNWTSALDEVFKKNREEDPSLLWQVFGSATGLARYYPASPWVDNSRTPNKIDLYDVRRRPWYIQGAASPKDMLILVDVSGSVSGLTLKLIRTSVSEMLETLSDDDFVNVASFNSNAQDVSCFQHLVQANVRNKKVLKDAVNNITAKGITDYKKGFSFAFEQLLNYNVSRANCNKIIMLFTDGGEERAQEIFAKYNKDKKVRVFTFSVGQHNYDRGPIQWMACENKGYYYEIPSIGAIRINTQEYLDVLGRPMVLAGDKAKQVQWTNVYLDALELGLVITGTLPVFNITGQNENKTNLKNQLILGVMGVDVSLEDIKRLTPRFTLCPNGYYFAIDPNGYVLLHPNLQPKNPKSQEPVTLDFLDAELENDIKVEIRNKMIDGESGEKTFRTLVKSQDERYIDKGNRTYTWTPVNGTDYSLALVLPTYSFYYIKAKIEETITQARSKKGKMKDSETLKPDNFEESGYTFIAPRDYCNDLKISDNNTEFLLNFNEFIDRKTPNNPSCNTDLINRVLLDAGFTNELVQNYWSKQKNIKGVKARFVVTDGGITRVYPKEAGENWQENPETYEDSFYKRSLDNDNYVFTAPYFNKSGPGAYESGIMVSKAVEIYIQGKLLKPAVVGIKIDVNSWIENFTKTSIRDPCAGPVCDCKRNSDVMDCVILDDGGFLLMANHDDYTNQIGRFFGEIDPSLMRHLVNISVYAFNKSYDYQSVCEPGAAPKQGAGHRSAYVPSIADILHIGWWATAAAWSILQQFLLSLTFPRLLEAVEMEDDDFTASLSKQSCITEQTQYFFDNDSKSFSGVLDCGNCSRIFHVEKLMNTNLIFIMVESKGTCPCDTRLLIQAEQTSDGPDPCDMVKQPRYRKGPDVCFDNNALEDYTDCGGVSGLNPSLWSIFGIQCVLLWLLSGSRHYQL

For test [2], the target named is pig alpha-2-delta receptor 1 (A2DR1) (Sus scrofa, UniProt A0A287BIN3). The experiment in a line: [3H]Gabapentin scintillant proximity A2DR1 binding assay (A2DR1 SPA, Biological Method 5). The method, then: (§1) Recombinant HEK 293 cells expressing pig A2DR1 and A2DR2 subunits were grown under normal cell culture conditions (RPMI-1640 media with 10% FBS, 200 μg G418, and 1% penicillin/streptomycin 1t 37° C. with 5% CO2) until reaching confluency in T-75 flasks, at which time they were harvested. The harvested cells were suspended in ice-cold 5 mM Tris/5 mM ethylenediaminetetraacetic acid (“EDTA”) buffer, pH 7.4 (“TE buffer”) containing phenylmethylsulfonyl fluoride (“PMSF”) (0.1 mM) and Roche Complete Protease Inhibitor Cocktail, and allowed to sit on ice for 30 minutes. The cells were broken by sonication using 20 bursts, 40-50 cycles, and then centrifuged at 3000×g for 10 minutes. The resulting supernatant was transferred to a new tube and centrifuged at 50,000×g for 30 minutes. The resulting pellet was resuspended in 10 mM HEPES buffer, pH 7.4, homogenized, and stored at—80° C. The A2DR1 or A2DR2 membrane protein concentration was determined by the Pierce BCA method using bovine serum albumin (“BSA”) as the standard.
(§2) The [^3H]gabapentin SPA binding assay was performed in Costar 3632 96-well, clear bottom assay plates using Wheatgerm agglutinin beads (Amersham Pharmacia Biotech). Pig A2DR1 or A2DR2 membranes (10-20 μg protein per well) prepared above in Step (1) and SPA beads (0.5 mg per well) were mixed with 30 nM [^3H]gabapentin (52 Ci/mmol; Amersham Pharmacia Biotech) in 10 mM HEPES/10 mM MgSO4 assay buffer, pH 7.4 using KOH. The final well volume was 200 μL and non-specific binding was determined in the presence of 10 μM unlabeled pregabalin. The final mixture containing A2DR1 or A2DR2 membrane protein incubated with SPA beads, test compounds, and [^3H]gabapentin was incubated at room temperature for 15-24 hours, and the plates were then counted on a Wallace Trilux 1450 Microbeta scintillation counter. Step (3): Determination of IC50 values
(§3) Curve fitting and IC50 values were calculated using a four-parameter, non-linear regression equation from GraphPad Prism 3.0 software, while Ki values were determined using the equation of Chang and Prussoff.

Test [3] addresses pig alpha-2-delta receptor 2 (A2DR2) (UniProt A0A8W4FF87). Kind of test: [3H]Gabapentin scintillant proximity A2DR2 binding assay (A2DR2 SPA, Biological Method 5). The method, then:
as §1, §2, §3

For test [4], the target named is alpha-2-delta receptor 1 (A2DR1) (Homo sapiens, UniProt P54289). The experiment in a line: [3H]Gabapentin A2DR1 binding assay (filter, Biological Method 4). The following applies: read-out: A2DR1 IC50, displacement of [3H]-gabapentin. The source says:
(§4) HEK 293 recombinant cells expressing A2DR1 or A2DR2 protein are harvested and washed in phosphate buffered saline (“PBS”). The cells are centrifuged and resuspended in tris(hydroxymethyl)aminomethane-ethylenediaminetetraacetic acid (“Tris-EDTA” or “TE”) buffer containing Roche Complete Protease Inhibitor Cocktail. The cells are homogenized, centrifuged at 3000×g, and the supernatant centrifuged again at 50,000×g. The resulting pellet is resuspended and homogenized in TE. Following determination of A2DR1 or A2DR2 protein concentration, aliquots are stored at −70° C. until the day of testing (membrane preparation may be used for at least 6 months).
(§5) In one version, the binding assay is set up in a 96-well format using deep-well polypropylene plates. […] Non-specific binding for each plate is determined by the addition of 10 μM of pregabalin instead of test compound in a few of the 96 wells. […] The mats are placed into plastic pouches, scintillation cocktail is added, the pouches are sealed, and radioactivity for each sample is counted.
(§6) Specific binding values for each concentration are transformed and then analyzed by a 4-parameter nonlinear regression equation provided by Prism graphics software by Graph Pad to determine IC50 values by conventional means.

Test [5] deals with alpha-2-delta receptor 2 (A2DR2) (Homo sapiens, UniProt Q9NY47). The experiment in a line: [3H]Gabapentin A2DR2 binding assay (filter, Biological Method 4). Conditions: read-out: A2DR2 IC50, displacement of [3H]-gabapentin.
Text: as §4, §5, §6

Test [6] deals with alpha-2-delta receptors, membrane from pig cortex (Sus scrofa, UniProt O77773). The experiment in a line: [3H]Gabapentin A2DR binding assay (GABAPAA or GABAP, Biological Method 6). The method, then: In one version, the binding assay is set up in a 96-well format using deep-well polypropylene plates. In a total volume of 500 μL, the following additions are made: 250 μL buffer [[…] N-2-hydroxyethylpiperazine-N′-2-ethanesulfonic acid (“HEPES”), pH 7.4], 25 μL [3H]gabapentin (10 nM final concentration), 200 μL thawed tissue membrane preparation from Step (1) (˜40 μg protein), and 25 μL of test compound at 7 test dilutions (for example, 0.001, 0.01, 0.03, 0.1, 0.3, 1.0, and 10 μM concentrations). Non-specific binding for each plate is determined by the addition of 10 μM of pregabalin instead of test compound in a few of the 96 wells. Following incubation for 45 minutes at 21° C., the contents of the wells are filtered under vacuum onto glass filter/B (“GF/B”) filter mats and then washed 4×1 mL with chilled 50 mM tris(hydroxymethyl)aminomethane (“Tris”) HCl, pH 6.9. The mats are placed into plastic pouches, scintillation cocktail is added, the pouches are sealed, and radioactivity for each sample is counted.
as §6
The GABAPAA assay, also known as the GABAP assay, is carried out according to the method of Biological Method 4 except that the source of alpha-2-delta receptors is membrane from pig cortex.

The mark [7] stands for this setting: read-out: A2DR1 SPA IC50, displacement of [3H]-gabapentin, tested form: hydrochloride.
Where [8] appears, read: read-out: A2DR2 SPA IC50, displacement of [3H]-gabapentin, tested form: hydrochloride.
[9] abbreviates: read-out: A2DR1 SPA IC50, displacement of [3H]-gabapentin, tested form: HCl.
[10] abbreviates: read-out: A2DR2 SPA IC50, displacement of [3H]-gabapentin, tested form: HCl.
The mark [11] stands for this setting: read-out: GABAPAA IC50, displacement of [3H]-gabapentin, tested form: HCl.

Read-outs that look alike come from different tables or passages of the source. A value given as a limit tells only on which side of the number the result lay.

For `CN1[C@@H](C(=O)O)C[C@H]2CCCC[C@H]21`, in test [1] (30 mg/kg BID oral, tested form: hydrochloride), the “% I @ 30 mg/kg BID (%) (± SEM): inhibition of loss of hind limb joint function in MIA at Day 14” value is given as 69 ± 15%. The IC50 in test [2] (setting [7]) and in test [3] (setting [8]) was at least 10 µM each time.
For `CCC1CCC2NC(C(=O)O)CC2C1` (stereo not drawn), the “% I @ 10 mg/kg/day (%) (± SEM): inhibition of loss of hind limb joint function in MIA at Day 14” value in test [1] turned out to be 65 ± 11%. For the same compound, the IC50 in test [4] (tested form: HCl) is at least 10 µM; in test [5] (tested form: HCl), at least 10 µM; in test [2] (setting [9]) it was 1.1 µM; in test [3] (setting [10]) it was 5.8 µM; in test [6] (setting [11]) it was at least 10 µM.
Turning to `CN1C(C(=O)NS(C)(=O)=O)CC2CCCCC21` (stereo not drawn), the IC50 was at least 10 µM in test [4]; at least 10 µM in test [5]; at least 10 µM in test [6] (read-out: GABAPAA IC50, displacement of [3H]-gabapentin).
`CN1[C@H]2CCCC[C@H]2C[C@@]1(C)C(=O)O`: the IC50 in test [2] (setting [7]) and in test [3] (setting [8]) was at least 10 µM each time.
In the case of `CC1CCCC2CC(C(=O)O)NC12` (stereo not drawn), the “% I @ 10 mg/kg/day (%) (± SEM): inhibition of loss of hind limb joint function in MIA at Day 14” value in test [1] is on record as 26 ± 13%. Moreover, the IC50 in test [2] (setting [9]), in test [3] (setting [10]) and in test [6] (setting [11]) was at least 10 µM each time.
